{"source": "patent US20240350494A1", "about": "“THERAPEUTIC MODULATION OF INTEGRINS” (Pliant Therapeutics, Inc., priority 2021, published 2024)", "test_system": "Type I Collagen gene Col1a1 expression", "experiment": "Precision cut lung slices, acute bleomycin exposure, Col1a1 expression", "format": "cell-based, mice (C57BL/6)", "protocol": "Mice (C57BL/6) were administered 3 U/kg of bleomycin (Teva Pharmaceuticals; North Wales, PA) on day 0 via oropharyngeal aspiration while under anesthesia. On day 14, precision cut lung slices were obtained. Following euthanization, 2% low gelling temp agarose was injected into the mouse lungs via the trachea. […] The lobes were then subjected to precision slicing to obtain samples for culture using a microtome (Compresstome VF-300-OZ, Precisionary; Greenville, NC). Individual slices were distributed in a multiwell culture plate and cultured for 3 days under control (DMSO) and test compound conditions.", "data": [{"smiles": "Cc1cc(C)n(-c2cccc([C@H](CC(=O)O)CN3CC[C@H](CCc4ccc5c(n4)NCCC5)C3)c2)n1", "note": "[first pan-αV small molecule inhibitor, (3S)-3-[3-(3,5-dimethyl-1H-pyrazol-1-yl)phenyl]-4-{(3S)-3-[2-(5,6,7,8-tetrahydro-1,8-naphthyridin-2-yl)ethyl]-1-pyrrolidinyl}butanoic acid]", "values": [{"measurement": "Type I Collagen gene Col1a1 expression, normalized to DMSO control slices", "value": "decreased Type I Collagen gene Col1a1 expression comparably"}]}]}
